High-throughput results as filed in PubChem BioAssay.
Sampled rows, rich in hits. Any-hit rate of the full collection: about 1.5%.
PglD inh – blocks C. jejuni PglD acetyltransferase activity. purified PglD enzyme, DTNB colorimetric CoA detection. actives 0.098% (n = 360,000). inhibition, % at 12.5 µM; in the data active means inhibition above about 16%, passing the limit was not always enough
Yeast UUG start – modulators of yeast start codon fidelity, primary screen, whole organism, S. cerevisiae, single point, plate reader | AID 602363, 2012 | actives 0.13% (n = 350,000) | activity score, % at 18.7 µM | S. cerevisiae UUG-firefly luciferase reporter, luminescence/redox ratio;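 active means replicate mean at a twofold rise or more, about +100% in these data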;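 further: firefly luciferase made from a UUG start codon reports start codon fidelity; reporter light over untreated wells divided by growth signal over untreated wells; some hits fall short of that in this replicate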
RAD52 anneal inh – blocks human RAD52 DNA annealing. P43351. recombinant RAD52 DNA annealing, FRET fluorescence. inhibition, % at 18.7 µM. actives 0.46% (n = 360,000);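 active means every replicate showing at least 50% inhibition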
GSIS activator – GLuc luminescence reporter in INS-1E cells, primary screen for activators of glucose-dependent secretion of insulin. INS-1E GLuc reporter insulin secretion, 2-3 h. activation, % at 16.6 µM. actives 0.61% (n = 370,000);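 active means lowest replicate activation of at least 40%, so every replicate reaches that level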;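 further: 0% = median of neutral control wells and 100% = median of IBMX positive control wells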
RAD54 inh – RAD54 (human) branch migration inhibition; Q92698; RAD54 Holliday junction branch migration, FAM/BHQ fluorescence; inhibition, % at 10.4 µM; actives 0.14% (n = 360,000); AID 602329;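 active means mean normalized replicate activity at least 40 and at least half of replicates scoring 40 or more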;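 further: 0% = median of neutral control wells and 100% = median of positive control wells; inhibitors cause a drop in the FAM fluorescence signal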
CASP6 VEID inh – blocks human caspase-6 cleavage activity; P55212; purified caspase-6, Z-VEID-R110 cleavage fluorescence; inhibition, % at 12.5 µM; actives 0.53% (n = 350,000);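 active means mean inhibition across replicates at least about 35%, with every replicate also reaching that limit, limit read from the data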;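 further: 0% = median of neutral control wells and 100% = no fluorescence left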
An asterisk follows results filed as active.

`CCCCn1c(=O)[nH]c(=O)c2c1nc(-c1ccc([N+](=O)[O-])cc1)n2CC` gave PglD inh -1, Yeast UUG start -8, RAD52 anneal inh -18, GSIS activator 191*, RAD54 inh -12 and CASP6 VEID inh 2.
For O=C(NCc1ccccc1)c1ccc2nc(-c3ccco3)c(-c3ccco3)nc2c1 the results were PglD inh -7, Yeast UUG start -9 and RAD54 inh -9.
`O=C(Nc1ccccc1)c1ccc2nc(-c3ccco3)c(-c3ccco3)nc2c1` gave PglD inh 6, Yeast UUG start -15, GSIS activator -27 and RAD54 inh -2.
`CCCCNC(=O)c1ccc2nc(-c3ccco3)c(-c3ccco3)nc2c1` gave PglD inh -7, Yeast UUG start -7, RAD52 anneal inh 18, GSIS activator 7, RAD54 inh 7 and CASP6 VEID inh 72*.
Screening O=C(NCCCO)c1ccc2nc(-c3ccco3)c(-c3ccco3)nc2c1 returned RAD52 anneal inh 23, GSIS activator 22 and CASP6 VEID inh 55*.
For C[C@@H]1CN([C@H](C)CO)C(=O)c2cccc(NC(=O)C3CC3)c2O[C@@H]1CN(C)C(=O)NC1CCCCC1 the results were PglD inh 4, Yeast UUG start -2, RAD52 anneal inh 4, GSIS activator 14, RAD54 inh -9 and CASP6 VEID inh 1.
Screening O=C(CSc1ccc(Cl)cc1)Nc1ccc(-c2nc3ccccc3[nH]2)cc1 returned PglD inh 2, Yeast UUG start 0, GSIS activator 106* and RAD54 inh 0.
For CCOc1cc(-n2cnnn2)c(OCC)cc1NC(=O)c1cnccn1 the results were PglD inh -2, Yeast UUG start -16 and RAD54 inh 6.
For C[C@H]1CN([C@@H](C)CO)C(=O)c2cccc(NC(=O)Nc3ccccc3)c2O[C@H]1CN(C)C the results were PglD inh 19*, Yeast UUG start 18, RAD52 anneal inh 13, GSIS activator -3, RAD54 inh 8 and CASP6 VEID inh -1.
For C[C@H](CO)N1C[C@H](C)[C@H](CN(C)C)Oc2c(NC(=O)Nc3ccccc3)cccc2C1=O the results were PglD inh 1, Yeast UUG start 2, RAD52 anneal inh 14, GSIS activator 0, RAD54 inh -5 and CASP6 VEID inh 2.

Structures above that have an NH in an aromatic ring:
`CCCCn1c(=O)[nH]c(=O)c2c1nc(-c1ccc([N+](=O)[O-])cc1)n2CC` gave PglD inh -1, Yeast UUG start -8, RAD52 anneal inh -18, GSIS activator 191*, RAD54 inh -12 and CASP6 VEID inh 2.
Screening O=C(CSc1ccc(Cl)cc1)Nc1ccc(-c2nc3ccccc3[nH]2)cc1 returned PglD inh 2, Yeast UUG start 0, GSIS activator 106* and RAD54 inh 0.

Retrieved by compound from above:
For C[C@H](CO)N1C[C@H](C)[C@H](CN(C)C)Oc2c(NC(=O)Nc3ccccc3)cccc2C1=O the results were PglD inh 1, Yeast UUG start 2, RAD52 anneal inh 14, GSIS activator 0, RAD54 inh -5 and CASP6 VEID inh 2.
Screening O=C(NCCCO)c1ccc2nc(-c3ccco3)c(-c3ccco3)nc2c1 returned RAD52 anneal inh 23, GSIS activator 22 and CASP6 VEID inh 55*.

Further results
For C[C@H](CO)N1C[C@H](C)[C@@H](CN(C)C(=O)Nc2cccc3ccccc23)Oc2c(NC(=O)C3CCOCC3)cccc2C1=O the results were PglD inh -9, Yeast UUG start 4, RAD52 anneal inh -5, GSIS activator -6, RAD54 inh 9 and CASP6 VEID inh 52*.
C[C@@H]1CN([C@@H](C)CO)C(=O)c2cccc(NC(=O)Nc3cccc4ccccc34)c2O[C@H]1CN(C)CC1CC1 was read as PglD inh 2, Yeast UUG start -4, RAD52 anneal inh -11, GSIS activator -4, RAD54 inh 15 and CASP6 VEID inh 38*.
Screening Cc1ccn2cc(-c3ccc(NS(=O)(=O)c4ccccc4)cc3)nc2c1 returned PglD inh 7, Yeast UUG start 1, RAD52 anneal inh -5, GSIS activator -6, RAD54 inh -1 and CASP6 VEID inh 1.
O=C1CCC(=O)N1CCC(c1ccc(F)cc1)c1ccco1 (configuration not stated) was read as PglD inh 0, Yeast UUG start -9, RAD52 anneal inh -27, GSIS activator -2, RAD54 inh -9 and CASP6 VEID inh 5.
For O=C1c2ccccc2C(=O)N1CCC(c1ccc(F)cc1)c1ccco1 (configuration not stated) the results were PglD inh 1, Yeast UUG start -8, GSIS activator 43* and RAD54 inh -2.
For COc1ccccc1CNC(=O)COC(=O)c1ccc([N+](=O)[O-])o1 the results were PglD inh 5, Yeast UUG start 3, RAD52 anneal inh -15, GSIS activator -18, RAD54 inh 5 and CASP6 VEID inh 35*.
`O=C(COC(=O)c1ccc([N+](=O)[O-])o1)Nc1ccc2c(c1)OCO2` gave PglD inh -6, Yeast UUG start -22, RAD52 anneal inh -14, RAD54 inh 4 and CASP6 VEID inh 4.
O=C(COC(=O)c1ccc([N+](=O)[O-])o1)Nc1ccc2c(c1)OC(F)(F)O2 was read as PglD inh -10, Yeast UUG start 1, RAD52 anneal inh -16, GSIS activator -10, RAD54 inh 2 and CASP6 VEID inh 56*.
`Cc1ccc(CNC(=O)Cn2c(=O)c3sccc3n(Cc3ccc([N+](=O)[O-])cc3)c2=O)cc1` gave GSIS activator 42*.
Screening Cc1ccc(CNC(=O)Cn2c(=O)n(CC(=O)N3CCCCC3)c(=O)c3sccc32)cc1 returned PglD inh -2, Yeast UUG start -15, RAD52 anneal inh -4, GSIS activator -4, RAD54 inh -2 and CASP6 VEID inh -1.
C=CCn1cc(C(=O)NCCOC)c(=O)c2cc(S(=O)(=O)N(CC)CC)ccc21 was read as PglD inh -3, Yeast UUG start -9, RAD52 anneal inh -8, GSIS activator 7, RAD54 inh 2 and CASP6 VEID inh -1.
`O=C(Nc1ccccc1)c1c2c(nc3ccccc13)CCCC2` gave PglD inh -3, Yeast UUG start 5, RAD52 anneal inh -11, GSIS activator 9, RAD54 inh -2 and CASP6 VEID inh -2.
Screening COc1ccnc(N2CCN(c3ccc(Cl)cc3)CC2)c1C#N returned PglD inh 0, Yeast UUG start -17, RAD52 anneal inh -15, GSIS activator -25, RAD54 inh -6 and CASP6 VEID inh -1.
For COc1ccnc(N2CCN(c3cccc(C(F)(F)F)c3)CC2)c1C#N the results were PglD inh 2, Yeast UUG start -16, GSIS activator 73* and RAD54 inh -13.
O=[N+]([O-])c1cc(CN2CCN(c3cccc(C(F)(F)F)c3)CC2)c2cccnc2c1O was read as RAD52 anneal inh -15, GSIS activator -15 and CASP6 VEID inh 69*.
For CC1CCN(c2ccccc2NC(=O)c2ccc([N+](=O)[O-])o2)CC1 the results were PglD inh -1, Yeast UUG start -2, RAD52 anneal inh -45, GSIS activator 5, RAD54 inh 9 and CASP6 VEID inh 10.
For CC(=O)Nc1sc2c(c1-c1nc3ccccc3s1)CCN(C(C)C)C2 the results were PglD inh -5, Yeast UUG start -10 and RAD54 inh 78*.
For Cc1cccc(S(=O)(=O)N2CCCCN3[C@@H](CO)[C@H](c4ccc(-c5ccccc5)cc4)[C@@H]3C2)c1 the results were PglD inh -1, Yeast UUG start -10, RAD52 anneal inh 68*, RAD54 inh 2 and CASP6 VEID inh 1.
`Cc1ccccc1S(=O)(=O)N1CCCCN2[C@@H](CO)[C@H](c3ccc(-c4ccccc4)cc3)[C@@H]2C1` gave PglD inh 4, Yeast UUG start -13, RAD52 anneal inh 71*, RAD54 inh 1 and CASP6 VEID inh -2.
